The values below come from US10865384B2, “2,4,5-tri-substituted azole-based casein kinase 1 inhibitors as inducers for cardiomyogenesis” (AGENCY FOR SCIENCE, TECHNOLOGY AND RESEARCH, priority 2014, dated 2020).

The chains behind the UniProt entries cited, without tags or fusion partners. Where a name states a change or a piece, a line headed by the entry shows the natural chain unless it says otherwise.
UniProt P48730: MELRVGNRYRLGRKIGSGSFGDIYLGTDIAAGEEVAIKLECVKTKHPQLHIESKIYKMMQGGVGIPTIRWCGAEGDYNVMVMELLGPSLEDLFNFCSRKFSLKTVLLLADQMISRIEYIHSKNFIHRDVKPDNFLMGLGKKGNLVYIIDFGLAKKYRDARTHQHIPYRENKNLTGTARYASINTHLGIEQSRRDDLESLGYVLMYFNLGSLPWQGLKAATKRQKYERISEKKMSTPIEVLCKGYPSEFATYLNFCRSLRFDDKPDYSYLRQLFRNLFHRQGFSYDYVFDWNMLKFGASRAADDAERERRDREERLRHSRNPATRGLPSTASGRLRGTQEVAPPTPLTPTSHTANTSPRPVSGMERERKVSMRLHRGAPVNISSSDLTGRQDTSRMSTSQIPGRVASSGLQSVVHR
UniProt P49674: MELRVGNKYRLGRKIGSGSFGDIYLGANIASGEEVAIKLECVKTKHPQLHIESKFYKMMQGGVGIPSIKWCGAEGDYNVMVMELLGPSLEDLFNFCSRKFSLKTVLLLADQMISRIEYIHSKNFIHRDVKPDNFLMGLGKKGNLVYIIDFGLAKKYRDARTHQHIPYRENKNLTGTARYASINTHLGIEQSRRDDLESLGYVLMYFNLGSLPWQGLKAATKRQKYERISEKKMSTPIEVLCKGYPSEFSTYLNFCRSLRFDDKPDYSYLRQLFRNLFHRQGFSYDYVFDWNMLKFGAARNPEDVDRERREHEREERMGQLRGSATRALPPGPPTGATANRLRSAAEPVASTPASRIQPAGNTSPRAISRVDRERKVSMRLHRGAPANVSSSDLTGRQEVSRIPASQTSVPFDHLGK

One assay has as its target CK1δ (Homo sapiens (Human), UniProt P48730). The assay is described as follows: LanthaScreen Eu kinase binding assay, CK1δ. As to conditions: read-out: IC50 CK1δ; Table 3. In general terms: In TR-FRET formats the signal depends on donor and acceptor labels being close together.
Another assay addresses CK1ϵ (Homo sapiens (Human), UniProt P49674). As to the kind of experiment: LanthaScreen Eu kinase binding assay, CK1ϵ. As to conditions: read-out: IC50 Ck1ε; Table 3.

With `NC(=O)c1ccc(-c2nc(-c3ccc4c(c3)OCO4)c(-c3ccccn3)[nH]2)cc1` [SB431542, reference compound], the figures for the IC50 on CK1δ and on CK1ϵ were 174 nM and 147 nM, respectively.
